Laboratory results taken from patent publication US7612073B2, “Methods of administering tetrahydrobiopterin, associated compositions, and methods of measuring” (Biomarin Pharmaceutical Inc., priority 2007, dated 2009).

Experiment: stability of L-Biopterin in K2 EDTA human plasma (LC/MS/MS)
Format: in vitro ADME
Method: Published methods are based on the classical method developed by Fukushima and Nixon (Anal. Biochem., 102, 176-188 (1980)) using HPLC with fluorescence detection. In the LC/MS/MS method, the human plasma sample was stabilized with antioxidant, spiked with an internal standard (IS) solution and basified with sodium hydroxide solution, then oxidized with iodine solution. Upon incubation in dark at room temperature, ascorbic acid is added to reduce the excess iodine. Oxidized samples were extracted by protein precipitation. L-Biopterin in the reconstituted extracts was analyzed by using reversed-phase HPLC with Turbo Ion Spray® MS/MS detection. Negative ions for L-Biopterin were monitored in MRM mode. Drug-to-IS peak area ratios for the standards were used to create a linear calibration curve using 1/x^2 weighted least-squares regression analysis.
The oxidation conversion ratio of BH4 to L-Biopterin was evaluated at multiple time-points: 0, 1, 2, 4, 8, 12 and 23 weeks, and found consistent in all the tested time-points with a nominal molar conversion ratio of 47.3% determined from the first three consecutive time-points. The difference between the conversion ratio at other time-points and the nominal value ranges from −2.3 to 6.3%. The LC/MS/MS method was validated to quantify L-Biopterin in K2 EDTA human plasma in the linear calibration range of 5 to 1000 ng/mL (equivalent to 11 to 2114 ng/mL for BH4). […] The mean extraction recovery for L-Biopterin was 65.3%.

Q: Which “freeze thaw cycles after which stable” value does the source give for L-Biopterin here?
A: 4 freeze thaw cycles

Q: And the “time stable at room temperature” value?
A: at least 4 hours

Q: What about the “time stable at −70° C.” value of the same substance?
A: at least 275 days
